{"sequences": {"note": "Chains of the proteins cited; added tags and fusions are not shown.", "UniProt P24385, whole entry": "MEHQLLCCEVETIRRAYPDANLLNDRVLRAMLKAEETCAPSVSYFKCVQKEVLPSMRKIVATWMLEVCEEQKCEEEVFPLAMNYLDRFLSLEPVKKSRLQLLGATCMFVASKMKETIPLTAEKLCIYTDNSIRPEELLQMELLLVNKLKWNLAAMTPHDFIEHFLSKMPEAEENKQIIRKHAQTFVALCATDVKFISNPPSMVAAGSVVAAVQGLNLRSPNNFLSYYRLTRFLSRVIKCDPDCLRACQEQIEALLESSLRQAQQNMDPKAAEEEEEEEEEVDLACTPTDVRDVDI"}, "source": "patent US20140296484A1", "about": "“Cyclin Based Inhibitors of CDK2 and CDK4” (University of South Carolina, priority 2013, published 2014)", "key": {"[1]": {"molecular_target": "CDK2/Cyclin A2 (Homo sapiens, UniProt P20248)", "assay": "In vitro kinase assay, 32P filter capture with GST-Rb substrate", "type": "biochemical"}, "[2]": {"molecular_target": "CDK2/E (Homo sapiens, UniProt P24864)", "assay": "In vitro kinase assay"}, "[3]": {"molecular_target": "CDK4/Cyclin D1 (Homo sapiens, UniProt P24385)", "assay": "In vitro kinase assay, 32P filter capture with GST-Rb substrate", "type": "biochemical"}}, "data": [{"smiles": "CC(C)C[C@H](NC(=O)[C@H](CCCNC(=N)N)NC(=O)[C@H](CCCNC(=N)N)NC(=O)[C@H](CCCCN)NC(=O)[C@H](C)NC(=O)[C@@H](N)CO)C(=O)N[C@@H](Cc1ccco1)C(=O)NCC(N)=O", "note": "[SAKRRLX1G]", "values": [{"measurement": "IC50", "setting": "[1]", "value": 9.1, "unit": "µM"}, {"measurement": "IC50", "setting": "[2]", "value": 4, "unit": "µM"}]}, {"smiles": "CC(C)C[C@H](NC(=O)[C@H](CCCNC(=N)N)NC(=O)[C@H](CCCNC(=N)N)NC(=O)[C@H](CCCCN)NC(=O)[C@H](C)NC(=O)[C@@H](N)CO)C(=O)N[C@@H](CC1CCC1)C(=O)NCC(N)=O", "note": "[SAKRRLX4G]", "values": [{"measurement": "IC50", "setting": "[3]", "value": 74, "unit": "µM"}, {"measurement": "IC50", "setting": "[1]", "value": 100, "unit": "µM"}]}, {"smiles": "CC(C)C[C@H](NC(=O)[C@H](CCCNC(=N)N)NC(=O)[C@H](CCCNC(=N)N)NC(=O)[C@H](CCCCN)NC(=O)[C@H](C)NC(=O)[C@@H](N)CO)C(=O)N[C@@H](CC1CCCCC1)C(=O)NCC(N)=O", "note": "[SAKRRLX6G]", "values": [{"measurement": "IC50", "setting": "[1]", "value": 83, "unit": "µM"}]}, {"smiles": "CC(C)C[C@H](NC(=O)[C@H](CCCNC(=N)N)NC(=O)[C@H](CCCNC(=N)N)NC(=O)[C@H](CCCCN)NC(=O)[C@H](C)NC(=O)[C@@H](N)CO)C(=O)N[C@@H](Cc1cccnc1)C(=O)NCC(N)=O", "note": "[SAKRRLX7G]", "values": [{"measurement": "IC50", "setting": "[1]", "value": 80, "unit": "µM"}]}]}
